Values of other authors, collected in patent US12377133B2, “Dry pharmaceutical formulations of CNP conjugates” (Ascendis Pharma Growth Disorders A/S, priority 2019, dated 2025).

Conditions: after intravenous administration

C-type Natriuretic Peptide [CNP]
in vivo half-life: 2 min
